# Test results as given in ChEMBL document CHEMBL1141480 (Bioorg Med Chem Lett, 2008).
# Protein sequences, listed by entry. Tags and fused reporters are not part of them. Residues count along the entry.
# UniProt P43235, 115-329 limits assumed: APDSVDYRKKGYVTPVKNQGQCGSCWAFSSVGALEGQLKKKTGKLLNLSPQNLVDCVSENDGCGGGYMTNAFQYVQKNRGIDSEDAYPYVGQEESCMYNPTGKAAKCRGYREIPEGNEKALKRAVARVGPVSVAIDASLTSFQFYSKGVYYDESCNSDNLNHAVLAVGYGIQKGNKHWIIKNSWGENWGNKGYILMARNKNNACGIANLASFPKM
# Assays:
# Cathepsin K [1] = target: T1, Cathepsin K (Oryctolagus cuniculus, UniProt P43236); experiment: Inhibition of rabbit cathepsin K
# T1 sequence (P43236 whole entry): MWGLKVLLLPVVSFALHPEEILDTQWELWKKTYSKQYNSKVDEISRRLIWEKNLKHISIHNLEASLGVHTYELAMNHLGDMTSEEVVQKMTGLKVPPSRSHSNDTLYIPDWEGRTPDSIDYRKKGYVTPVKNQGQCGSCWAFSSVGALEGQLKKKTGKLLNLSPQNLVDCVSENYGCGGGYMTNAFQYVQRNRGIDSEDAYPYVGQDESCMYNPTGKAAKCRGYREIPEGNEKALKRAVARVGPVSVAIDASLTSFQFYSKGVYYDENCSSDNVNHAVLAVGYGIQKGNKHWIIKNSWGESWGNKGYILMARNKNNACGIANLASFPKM
# Cathepsin K [2] = target: Cathepsin K (Homo sapiens, UniProt P43235); experiment: Inhibition of humanized rabbit cathepsin K
# Method in brief: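 Enzyme was humanized rabbit cathepsin K, with assay conditions per an earlier report. Read-out is IC50; standard deviations were typically within 35% of the IC50.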
smiles,measurement,setting,value
CC(C)C[C@H](NC(=O)c1cc2ccccc2o1)C(=O)N[C@H]1CC[C@@H](C)N(S(=O)(=O)c2ccccn2)CC1=O [RELACATIB],IC50,Cathepsin K [1],0.5 nM
same,IC50,Cathepsin K [2],0.5 nM
